Patent US20160346313A1, “USES OF OLIGOURONATES IN CANCER TREATMENT” (NORWEGIAN UNIVERSITY OF SCIENCE AND TECHNOLOGY, priority 2013, published 2016)

Tested on: Capan-2 human pancreas tumour xenograft
Test: Capan-2 human pancreas tumour xenograft model: tumour weight, with statistical analysis (ANOVA by day, Eav, log scale, exponential growth model)
Format: in vivo, Female Athymic Nude mice
Settings: Gemcitabine 5
Description: The purpose of this study was to evaluate the anti-tumour activity of G-Block as an enhancer in combination with gemcitabine in the Capan-2 human pancreas tumour xenograft model. Gemcitabine was dosed at a level that would not be curative and allow for proof of concept evaluation in this model. Efficacy was assessed by comparison of tumour weights of treated groups with the vehicle control group on Day 11 and 74 and between combination groups and their respective single agents on Day 11 and 74.
G-Block (Lot #PolyG 230712-Dp10, 95%G) was received as a white hygroscopic amorphous powder from NTNU Technology Transfer AS (Trondheim, Norway) and stored desiccated at room temperature until use. NTNU's G-Block was dissolved in MilliQ water to a concentration of 70 mg/ml to be used as the stock solution. This solution was used to deliver a dose of approximately 560 mg/kg in a 200 μl fixed dose. The 70 mg/ml solution was then diluted in 0.9% 150 mM NaCl (B. Braun Medical; Irvine, Calif.) to deliver doses of approximately 200 mg/kg, 75 mg/kg, 25 mg/kg, and 5 mg/kg in a 200 μL fixed dose volume. All dosing calculations assume a 25 g animal. NTNU's G-Block 70 mg/ml stock solution was formulated at the beginning of the study and used for dilutions before each dose, sterile filtered, and stored at 4° C. between doses. All unused dosing mixture was properly disposed of at TD2 after the study ended.
Gemcitabine (Lot #A892259C) was received as a solution from Eli Lilly and Co. (Indianapolis, Ind.) and stored at room temperature until use. […]
Female mice were inoculated subcutaneously in the right flank with 0.1 mL of a 50% RPMI/50% Matrigel™ (BD Biosciences, Bedford, Mass.) mixture containing a suspension of Capan-2 tumor cells (approximately 5.0×10^6 cells/mouse). Seven days following inoculation, tumors were measured using calipers and tumor weight was calculated using the animal study management software, Study Director V.2.1.1 (Study Log)^1. […] Body weights were recorded when the mice were randomized and were taken twice weekly thereafter in conjunction with tumor measurements. […]

Measured: Ratio vs Vehicle

Nc1ccn([C@@H]2O[C@H](CO)[C@@H](O)C2(F)F)c(=O)n1 [Gemcitabine 5, Gemcitabine]
1.14: Day 64 | Day 67 | Day 71
